{
  "source": "PubChem BioAssay AID743287",
  "about": "(Broad Institute, 2014)",
  "note": "Only a part is listed here, and it is no random draw. Activity calls are given as the source filed them.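 The calls were made as follows: active = lowest replicate activation of at least 40%, so every replicate reaches that level; inactive = the rest.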",
  "data": [
    {"test": "primary screen for activators of insulin secretion dependent on glucose, INS-1E cells, GLuc reporter luminescence (AID 743287);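 also: 0% = median of neutral control wells and 100% = median of IBMX positive control wells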", "settings": "INS-1E GLuc reporter insulin secretion, 2-3 h, at 16.6 µM, active compounds read high", "values": [
      {"smiles": "CCC(=O)N(c1ccccc1)C1(COC)CCN(CCc2cccs2)CC1", "activation": "inactive: 2.4%"},
      {"smiles": "CCC(=O)N(c1ccccc1)C1(COC)CCN(CCn2nnn(CC)c2=O)CC1", "activation": "inactive: 0.997%"}
    ]}
  ]
}
